Data taken from US11547681B2, “N-acylethanolamide derivatives and uses thereof” (ELIEM THERAPEUTICS, INC., priority 2016, dated 2023).
Like-named read-outs stand apart in the source and are kept apart here.

Assays:
Liver S9 stability, rat = details: control compound
[1] = Liver S9 stability, mouse; details: Mouse liver S9, control compound
[2] = male, Beagle, dog, s9
[3] = Intestinal S9 fraction stability, human

In the case of `C[C@]12CC[C@H]3[C@@H](CCC4=CC(=O)CC[C@@]43C)[C@@H]1CC[C@@H]2O` [Testosterone, testosterone], the “CLint (ml/min/mg protein)” value (Liver S9 stability, rat) is reported as 0.148 ml/min/mg protein, the CLint [1] is reported as 0.0976 ml/min/mg protein and the Half-life [2] is reported as 14 min. The “Half-life (min)” value [2] was 14 min, the Half-life [3] was 14 min and the Half-life ([3]; Control Compound) was 14 min.
